Laboratory results: article PMC3034713, “Targeting Vascular NADPH Oxidase 1 Blocks Tumor Angiogenesis through a PPARα Mediated Mechanism” (PLoS ONE, 2011)

Test system: 135 different targets including ROS producing and redox-sensitive enzymes
Experiment: Pharmacological profiling of 135 different targets
Settings: 10 µM

Q: How did the “inhibition in profiling of 135 different targets” value turn out when Cc1c2c(=O)n(-c3ccccc3Cl)[nH]c2cc(=O)n1Cc1ccccn1 [GKT136901] was run?
A: low or no inhibition
